Measured affinities in a library of Ab-14 light chain variants

Source: Li et al. 2023 (doi:10.1038/s41467-023-39022-2), MIT Lincoln Laboratory and A-Alpha Bio; data file from the FLAb repository.

Target: peptide PDVDLGDISGINAS, taken from heptad repeat 2 (HR2) of SARS-CoV-2 spike.

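The starting antibody came from a phage panning campaign against this peptide. Designed CDR sequences, proposed from the first random library and measured here. Several design methods are mixed in this list. The scFvs were displayed on barcoded MATa yeast, the peptide on MATalpha yeast. Mating (16 h, 30 °C) was followed by selection of diploids and sequencing of their barcodes. Read counts were normalised to the haploid input and turned into Kd by a linear fit to BCL2-family pairs of known affinity, for each replicate. There are six technical replicates.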

The variants keep the heavy chain, the linker and the frameworks of Ab-14 (scFv order VH, a (GGGGS)3 linker, VL).
VH: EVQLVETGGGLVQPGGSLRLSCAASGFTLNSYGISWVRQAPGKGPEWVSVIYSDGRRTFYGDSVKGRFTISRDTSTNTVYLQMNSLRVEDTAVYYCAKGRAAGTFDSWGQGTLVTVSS
VL: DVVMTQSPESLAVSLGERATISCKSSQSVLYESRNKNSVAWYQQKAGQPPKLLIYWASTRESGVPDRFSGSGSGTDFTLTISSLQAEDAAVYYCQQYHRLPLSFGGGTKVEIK

Each variant is given by its three light chain CDRs, as the data file delimits them; those of the parent are KSSQSVLYESRNKNSVA, WASTRES, QQYHRLPLS. Scale: log10 of Kd in nM, estimated from mating counts; low values are strong binders. Replicates are averaged; those with no signal do not enter the mean. An entry "n.d." has no value in the source: the pair was not observed among the diploids in that replicate. This suggests poor binding but is not conclusive. Entries are sorted by rising average, undetected variants last.

| log10 Kd, replicates | log10 Kd (nM), mean | CDR-L1 | CDR-L2 | CDR-L3 |
|---|---|---|---|---|
| -0.14 -0.54 -0.46 -0.44 -0.56 -0.39 | -0.42 | KFEQSGLYESRNKNSVA | NASTRES | QQYHRLPLS |
| -0.06 -0.12 -0.35 -0.24 -0.31 -0.11 | -0.20 | KVRQSTLYESRNKNSVA | DASTRES | QQYHMLPLS |
| 0.16 -0.20 -0.11 -0.29 -0.34 -0.33 | -0.18 | KVSQSVLYESRMKNSVA | DASTRCS | QQYHRLPLY |
| -0.03 -0.10 -0.29 -0.30 -0.14 -0.21 | -0.18 | KFEQSWLYESRNVNSVA | QASQRSS | QQYHRLPLS |
| 0.25 0.06 -0.20 -0.20 -0.29 -0.17 | -0.09 | KIIQSGPYESRNKNSVA | SASTRSS | QQYHRLPLS |
| 0.08 -0.20 0.05 -0.20 -0.18 -0.01 | -0.08 | KSSQGWLYESRNKNSVA | GASTREN | QQYHRLPLS |
| 0.26 -0.06 0.00 -0.11 -0.09 0.12 | 0.02 | KQSQAFLYESRNKNSVA | DASTRES | QQYHRLPLS |
| 0.12 0.06 0.13 0.13 0.10 0.18 | 0.12 | KISQSELYESRNKNSIA | NANQREQ | QQYHRLPLS |
| 0.29 0.18 0.27 0.04 -0.07 0.11 | 0.14 | KSEQSVLTESRNKNSVA | SASTRES | QQYVRLPLS |
| 0.24 0.42 0.27 0.29 0.50 0.41 | 0.35 | VLPDHELMLESQIHSIA | NETKRME | QQYSRLPLV |
| 0.42 0.16 -0.18 0.85 0.82 0.44 | 0.42 | KASQSELYESRNKNSVA | GASTRES | QQYHRLPLI |
| 0.67 0.40 0.48 0.28 0.49 0.49 | 0.47 | KLSMITGHMSTAKQNVA | EMVTREN | QQYNRLPLS |
| 0.50 0.89 0.62 0.61 0.45 0.56 | 0.61 | KSSPSEYYEDRNFNSVA | HASQRES | QQYHRLPLS |
| 0.63 0.62 0.53 0.59 0.65 0.71 | 0.62 | HLSQSTDLESVHKNSIA | DLMTRES | QQYHRLPLS |
| 0.75 0.61 0.78 0.67 0.41 1.04 | 0.71 | KLSQSSNYLSRVMNSVA | DNSTRES | QQYFRLPLS |
| 0.86 0.64 0.77 0.81 0.92 0.98 | 0.83 | KVSQSWQYGSRNKNSVA | HASQRES | QQYHRLPLS |
| 1.06 0.76 0.89 1.00 0.87 1.46 | 1.01 | MISNVMNTLTRHGNNVA | DLSERED | QQYFRLPLS |
| 0.52 0.99 3.59 0.49 1.00 0.23 | 1.14 | KLRQSTLYESRNKNEVA | EASTRES | QQYHRLPLS |
| 0.91 1.01 1.51 1.06 1.34 1.13 | 1.16 | KMQQSGLYESRNKNSVA | WASRRES | QQYHRLPLS |
| 0.73 1.14 1.49 1.38 1.11 1.48 | 1.22 | KISQMTRVGSTHSNSIA | EEATRAK | QQYHRLPLF |
| 1.50 n.d. n.d. n.d. n.d. n.d. | 1.50 | IVSQLMLWGLHAKNSIA | EAQTRVN | QQYDRLPLI |
| n.d. 2.31 1.38 1.73 1.63 1.21 | 1.65 | ILYDSVGTLSRNKNSVA | DNSTRES | QQYDRLPLS |
| 1.54 1.84 1.49 1.65 1.82 1.69 | 1.67 | TIGQTLMSGVRNRSNVA | EVSQRLN | QQYDRLPLI |
| 1.82 2.44 1.37 1.42 1.18 2.34 | 1.76 | IISQVDGYLMHQTNSIA | DQTTRGS | QQYDRLPLS |
| 1.82 1.88 1.83 2.35 2.38 1.60 | 1.98 | KSSQSVLIESRNKNSVA | WASTRSS | QQYHRLPLS |
| 1.99 1.45 2.53 2.02 2.48 1.93 | 2.07 | NLGYQQDGNGLQRQAVA | NVTMKEY | QYYGRLPLM |
| 3.76 2.27 n.d. 2.39 2.62 3.13 | 2.83 | TLTQVQGMESHHKDNVA | DLSTRGN | QQYDRLPLS |
| n.d. n.d. n.d. n.d. n.d. n.d. | n.d. | KSSQSALVESRESNSVA | WASCRES | QQYHRLPLW |
| n.d. n.d. n.d. n.d. n.d. n.d. | n.d. | SVPSEMNQQQTQVNSVA | GEQHTAR | QQYGRLPLS |
| n.d. n.d. n.d. n.d. n.d. n.d. | n.d. | KISTQIPEFEMWDNAIA | GATLRPT | QHYARLPLS |
| n.d. n.d. n.d. n.d. n.d. n.d. | n.d. | KSSQSVLYESRNKNSVA | KASYRES | QQYARLPRS |
| n.d. n.d. n.d. n.d. n.d. n.d. | n.d. | KIFGSIPEFEMDDNAIA | MATLRET | QQYQRLPLS |

The closing 2 entries, repeated:

| CDR-L1 | CDR-L2 | CDR-L3 | log10 Kd, replicates | log10 Kd (nM), mean |
|---|---|---|---|---|
| KSSQSVLYESRNKNSVA | KASYRES | QQYARLPRS | n.d. n.d. n.d. n.d. n.d. n.d. | n.d. |
| KIFGSIPEFEMDDNAIA | MATLRET | QQYQRLPLS | n.d. n.d. n.d. n.d. n.d. n.d. | n.d. |

Of ten entries with the parent sequence, four were seen in most replicates (averages 0.34 to 2.37), three in one and three in none, so single entries are noisy. As a blank, each scFv also met three strains without target: over all light chain designs, 4% of these pairings were detected, typically at 2.64 and seldom below 1.59. The authors' rule: three or more of the six replicates give a measured affinity, fewer mean a poor binder. A sequence measured in both rounds can read differently, since the two assays cover different ranges.